Assay results published in US8822503B2, “2-pyridone compounds” (Taisho Pharmaceutical Co., Ltd, priority 2009, dated 2014).

Amino acid sequences for entries named in this document (tags omitted). Residues count along the entry.
UniProt P35557, 1-466 isoform 2: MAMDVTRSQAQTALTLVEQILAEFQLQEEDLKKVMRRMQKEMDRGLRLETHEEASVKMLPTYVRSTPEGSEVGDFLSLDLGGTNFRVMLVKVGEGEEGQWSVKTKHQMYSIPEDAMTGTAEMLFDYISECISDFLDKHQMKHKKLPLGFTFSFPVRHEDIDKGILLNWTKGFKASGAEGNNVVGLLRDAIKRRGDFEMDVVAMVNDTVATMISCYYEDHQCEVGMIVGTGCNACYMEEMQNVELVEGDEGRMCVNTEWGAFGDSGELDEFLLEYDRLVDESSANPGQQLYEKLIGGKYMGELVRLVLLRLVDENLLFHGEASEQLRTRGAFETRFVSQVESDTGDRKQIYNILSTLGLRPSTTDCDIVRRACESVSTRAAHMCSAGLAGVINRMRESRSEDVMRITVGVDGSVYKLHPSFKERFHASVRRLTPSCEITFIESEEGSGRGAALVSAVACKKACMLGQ

target: human liver GK (Homo sapiens, UniProt P35557); experiment: GK activation test; conditions: read-out: GK EC50; test compound concentration needed to activate 50% of maximum activation ability; 4 mM 14C-labeled glucose, 2 mM ATP, room temperature, 20 minutes
Protocol: The GK activation test for the test compounds was performed by the method of Irwin A. Rose et al. (J. Biol. Chem. 1964 January; 239:12-7) with partial modifications.
The enzyme source used in this assay, human liver GK, was expressed in E. coli as a fusion protein with GST (glutathione S-transferase) added to the amino terminus and was purified using Glutathione Sepharose 4B (Amersham Biosciences).
The test was carried out using flat-bottom 96-well plates (Sumitomo Bakelite Co., Ltd.). A solution of the test compound in dimethyl sulfoxide (DMSO) and DMSO as a control were added to each well of the plates at a final DMSO concentration of 1%. 25 mM Hepes-KOH (pH=7.1), 25 mM KCl, 2 mM MgCl2, 2 mM ATP, 4 mM ^14C-labeled glucose (Muromachi Yakuhin) and 1 mM DTT (dithiothreitol) were further added at the indicated final concentrations, respectively. Finally, human liver GK was added at 0.24 microgram per well and the reaction was started. The reaction was carried out at room temperature.
After 20 minutes, AG1-X4 resin (BioRad) suspended in 25 mM Hepes-KOH (pH=7.1) was added and the reaction product, labeled glucose 6-phosphate, was allowed to bind thereto. The whole volume was transferred to MultiScreen plates (Millipore) and the resin was washed with water. Thereafter, the labeled glucose 6-phosphate binding to the resin was eluted with a 0.5 M NaCl solution. The labeling activity of the eluted labeled glucose 6-phosphate was measured as an index of GK activity.
The GK activity maximally activated by the test compound was described as maximum activation ability, and the test compound concentration needed to activate 50% of that ability was described as EC50.

| EC50 | SMILES |
| --- | --- |
| 500 to 3000 nM | CSc1ccc(/C(=N\OC2CCCC2)c2ccc(C)c(=O)[nH]2)cc1Cl |
| 3000 to 10000 nM | Cc1ccc(/C(=N/OC2CCCC2)c2ccc(S(C)(=O)=O)c(Cl)c2)[nH]c1=O |
| 500 to 3000 nM | CSc1ccc(/C(=N/OC2CCCC2)c2ccc(C)c(=O)[nH]2)cc1Cl |
| 500 to 3000 nM | Cc1ccc(/C(=N\OC2CCCC2)c2ccc(S(C)(=O)=O)c(Cl)c2)[nH]c1=O |
